Assay results reported in publication PMC10798254 (Indian Journal of Nuclear Medicine : IJNM : The Official …, 2023).

Assay: Biodistribution and dosimetry of 177Lu-DOTA-Trastuzumab
Format: in vivo, HER-2 positive breast carcinoma patients

^177Lu-DOTA-Trastuzumab
mean absorbed dose, WB (OLINDA EXM): 0.2412 ± 0.0295 mGy/Mbq | mean absorbed dose, heart (OLINDA EXM): 1.4719 ± 0.602 mGy/Mbq | mean absorbed dose, kidneys (OLINDA EXM): 1.4232 ± 0.364 mGy/Mbq | mean absorbed dose, liver (OLINDA EXM): 1.0702 ± 0.731 mGy/Mbq | mean absorbed dose, red marrow (OLINDA EXM): 0.1485 ± 0.0213 mGy/Mbq | mean absorbed dose, spleen (OLINDA EXM): 1.4114 ± 0.462 mGy/Mbq | absorbed radiation dose for tumor (ORIGIN software): 1.78E+2 | mean absorbed dose, heart (ORIGIN software): 1.8971 ± 0.713 mGy/Mbq | mean absorbed dose, kidneys (ORIGIN software): 0.7943 ± 0.235 mGy/Mbq | mean absorbed dose, liver (ORIGIN software): 0.5741 ± 0.333 mGy/Mbq | mean absorbed dose, spleen (ORIGIN software): 0.8096 ± 0.224 mGy/Mbq | mean absorbed dose, WB (ORIGIN software, fifth of five values): 0.09619 ± 0.0144 mGy/Mbq
